Results: patent publication US10760111B2, “Reagents for electrochemical test strips” (dated 2020)

Test: Accelerated aging of test strips: change in slope of glucose calibration curve (enzyme stability in dry reagent)
Conditions: up to 40 days at 50° C.; FIG. 12, 13

With “tetramethylammonium salt of the conjugate base of 3-[N-Tris(hydroxymethyl)methylamino]-2-hydroxypropanesulfonic Acid” the “enzyme stability in dry reagent (slope and intercept on aging)” value was “superior to TMA-TES”.
